Reference: patent US11472799B2, “Serine threonine kinase (AKT) degradation / disruption compounds and methods of use” (Icahn School of Medicine at Mount Sinai, priority 2018, dated 2022)

Test system: AKT
Experiment: Western blot of AKT protein levels and downstream signaling in BT474 cells
Type: cell-based, human
Procedure: PC-3, U87MG, HCC1143, MDA-MB-231, MDA-MB-468, BT474 and MCF-7 cell lines were purchased from ATCC. Cell lines were regularly tested in the lab for mycoplasma. All cells were cultured at 37° C. and 5% CO2. PC-3, U87MG, MDA-MB-231, MCF-7 and BT474 cells were cultured in 1×DMEM (Corning, 10-013-CV) with 10% fetal bovine serum (Atlanta Biologicals S11150) and 1× Penicillin/Streptomycin. HCC1143 cells were cultured in RPMI (Corning, 10-040-CV) medium with 10% fetal bovine serum (Atlanta Biologicals S11150) and 1× Penicillin/Streptomycin. Cells were split using 0.05% or 0.25% trypsin (Corning 25-051-Cl or 25-053-Cl, respectively) before they reached full confluence and media was changed every 3-4 days. Cells were treated with compounds individually at different concentrations for 24 hrs. Cells were treated with DMSO, VHL, or PML alone as controls.
Cells were lysed in 2× sample buffer (125 mM Tris-HCl at pH 6.8, 10% βME, 2% SDS, 20% glycerol, 0.05% Bromophenol Blue, 8 M urea). Protein lysates were loaded into 4-12% Bis-Tris gels and resolved by electrophoresis. Samples were then blotted on PVDF membrane (Millipore IPVH00010) using the wet transfer technique (Invitrogen). Membranes were blocked in 5% milk-TBST for 1 hour, washed in TBST for 10 min, and incubated in primary antibody in 5% milk-TBST or 5% BSA-TBST at 4° C. for 16 h. Membranes were rinsed (3×6 min) in TBST and incubated in horseradish peroxidase-conjugated secondary antibodies in 5% milk-TBST for 1 hour and rinsed again in TBST (3×6 min). Membranes were visualized using the chemiluminescence system (Thermo 34080, 37075) on autoradiography film (Denville E3018). Primary Antibodies: R-actin (Sigma A5316), p-AKT (Ser473 CST-9721), total AKT (CST-9272), p-S6 (Ser240/244, CST-5364), p-PRAS40 (Thr246, CST-2997). Secondary Antibodies: Mouse (Thermo 31432), Rabbit (Thermo 31460).

## CC(C)NC[C@@H](C(=O)N1CCN(c2ncnc3c2[C@H](C)C[C@H]3O)CC1)c1ccc(Cl)cc1 [GDC0068, reference compound]
1 μM, 5 μM, or 10 μM for 24 h
  AKT protein levels: no effect
  pAKT levels: increased
0.01-1 μM for 24 h (FIG. 4A)
  AKT protein levels: no effect
  pAKT levels: increased
